How the values were obtained:
CypB = CypB (Homo sapiens, UniProt P23284); conditions: read-out: CypB IC50; PPIase enzyme assay, 20 °C, mean±s.d.
Huh7 cells = assay: Cellular toxicity in Huh7 replicon cells; type: cell-based; conditions: read-out: HCV genotype 1b replicon CC50
MRC5 cells = assay: Cellular toxicity in MRC5 cells; type: cell-based; conditions: read-out: MRC5 cells CC50
[1] = LogD determination by reverse-phase HPLC; conditions: octanol/water, pH 7.4
Kinetic solubility = conditions: target concentration 100 μM, 24 h; for Solubility HCl (pH 1.0): 0.1 N HCl pH 1.0
Chemical stability, 24 h = type: physicochemical; conditions: 37 °C, remaining
Caco-2 cells = assay: Caco-2 cell permeability; conditions: Caco-2 monolayers, 10 μM
[2] = Human plasma protein binding, equilibrium dialysis; conditions: 2 μM, 37 °C, 3 h dialysis
[3] = Cell culture medium binding, equilibrium dialysis; conditions: 2 μM, 37 °C, 3 h dialysis
[4] = Stability with hepatic microsomal fractions; conditions: human microsomes 0.5 mg protein/ml, NADPH, 3 μM
CYP1A2 [5] = biological target: T1, CYP1A2 (Homo sapiens, UniProt P05177); assay: Metabolism by recombinant human cytochrome P450, CYP1A2; type: in vitro ADME; conditions: recombinant enzyme
Procedure: (§1) […] of compound was incubated with individual bacterially expressed recombinant human cytochromes P450 co-expressed with human NADPH cytochrome P450 reductase. The reduction in substrate concentration was monitored over 45 min using specific LC-MS/MS assays and the in vitro half-life calculated in the same manner as that described for hepatic microsomal stability. Enzyme-selective positive control substrates were tested in parallel.

Sequences of proteins named here, by UniProt entry; tags and fusion partners are left off. Residues count along the entry.
UniProt P23284, 34-216 limits assumed: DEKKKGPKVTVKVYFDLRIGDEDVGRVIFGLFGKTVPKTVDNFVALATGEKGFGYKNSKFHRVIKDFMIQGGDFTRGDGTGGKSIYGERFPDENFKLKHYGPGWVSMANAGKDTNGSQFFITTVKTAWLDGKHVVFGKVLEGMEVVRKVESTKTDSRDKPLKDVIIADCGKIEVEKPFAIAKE
UniProt P05177, whole entry: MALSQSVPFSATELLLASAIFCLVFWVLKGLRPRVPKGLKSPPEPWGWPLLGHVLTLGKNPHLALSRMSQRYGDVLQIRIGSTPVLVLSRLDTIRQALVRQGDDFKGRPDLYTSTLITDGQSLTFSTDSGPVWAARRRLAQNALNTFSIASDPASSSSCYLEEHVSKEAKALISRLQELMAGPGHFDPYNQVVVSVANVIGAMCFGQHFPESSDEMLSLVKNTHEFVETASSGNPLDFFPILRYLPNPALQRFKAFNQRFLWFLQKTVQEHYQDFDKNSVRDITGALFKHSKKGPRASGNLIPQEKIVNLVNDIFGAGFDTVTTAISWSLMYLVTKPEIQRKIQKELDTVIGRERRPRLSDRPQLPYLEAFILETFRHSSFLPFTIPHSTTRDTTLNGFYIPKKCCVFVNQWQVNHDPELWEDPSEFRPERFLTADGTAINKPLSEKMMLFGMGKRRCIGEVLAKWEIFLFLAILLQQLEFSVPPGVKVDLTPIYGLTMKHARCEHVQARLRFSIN
UniProt P20813, whole entry: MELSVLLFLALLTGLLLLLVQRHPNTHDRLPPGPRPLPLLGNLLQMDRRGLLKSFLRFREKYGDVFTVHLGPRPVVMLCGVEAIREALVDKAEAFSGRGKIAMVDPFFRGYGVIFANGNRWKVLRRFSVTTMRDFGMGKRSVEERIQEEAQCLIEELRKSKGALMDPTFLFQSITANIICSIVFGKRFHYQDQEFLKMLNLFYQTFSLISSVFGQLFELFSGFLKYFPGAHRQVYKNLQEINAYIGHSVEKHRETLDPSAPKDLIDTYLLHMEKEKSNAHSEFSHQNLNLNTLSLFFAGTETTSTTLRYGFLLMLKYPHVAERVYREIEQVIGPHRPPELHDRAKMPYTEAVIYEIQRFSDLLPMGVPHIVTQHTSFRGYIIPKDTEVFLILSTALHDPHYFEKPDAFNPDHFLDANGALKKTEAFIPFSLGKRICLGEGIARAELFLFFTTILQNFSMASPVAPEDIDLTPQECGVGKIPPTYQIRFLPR
UniProt P10632, whole entry: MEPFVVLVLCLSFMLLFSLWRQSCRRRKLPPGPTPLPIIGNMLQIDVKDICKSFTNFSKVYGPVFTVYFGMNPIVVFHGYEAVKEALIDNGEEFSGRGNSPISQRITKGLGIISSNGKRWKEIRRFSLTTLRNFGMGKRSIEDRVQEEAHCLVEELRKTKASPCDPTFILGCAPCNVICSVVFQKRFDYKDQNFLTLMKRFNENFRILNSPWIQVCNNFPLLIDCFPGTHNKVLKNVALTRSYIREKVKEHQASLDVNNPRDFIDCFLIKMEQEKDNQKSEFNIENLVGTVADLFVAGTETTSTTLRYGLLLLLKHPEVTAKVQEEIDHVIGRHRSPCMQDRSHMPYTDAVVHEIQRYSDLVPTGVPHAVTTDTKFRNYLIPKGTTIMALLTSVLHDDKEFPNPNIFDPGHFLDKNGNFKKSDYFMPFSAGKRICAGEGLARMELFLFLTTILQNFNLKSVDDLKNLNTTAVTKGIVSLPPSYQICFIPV
UniProt P11712, whole entry: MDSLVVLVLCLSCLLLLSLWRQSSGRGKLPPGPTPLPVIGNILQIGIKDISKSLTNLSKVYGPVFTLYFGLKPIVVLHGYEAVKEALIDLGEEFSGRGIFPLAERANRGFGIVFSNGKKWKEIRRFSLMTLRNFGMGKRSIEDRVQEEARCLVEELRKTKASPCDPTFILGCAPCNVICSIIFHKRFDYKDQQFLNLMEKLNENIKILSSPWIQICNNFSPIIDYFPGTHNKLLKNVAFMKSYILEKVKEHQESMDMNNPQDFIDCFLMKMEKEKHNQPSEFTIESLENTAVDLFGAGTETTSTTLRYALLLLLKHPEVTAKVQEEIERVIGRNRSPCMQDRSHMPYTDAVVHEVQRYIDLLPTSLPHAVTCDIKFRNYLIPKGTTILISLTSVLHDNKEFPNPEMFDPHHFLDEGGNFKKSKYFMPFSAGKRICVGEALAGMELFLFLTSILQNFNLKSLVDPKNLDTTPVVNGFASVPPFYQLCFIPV
UniProt P33261, whole entry: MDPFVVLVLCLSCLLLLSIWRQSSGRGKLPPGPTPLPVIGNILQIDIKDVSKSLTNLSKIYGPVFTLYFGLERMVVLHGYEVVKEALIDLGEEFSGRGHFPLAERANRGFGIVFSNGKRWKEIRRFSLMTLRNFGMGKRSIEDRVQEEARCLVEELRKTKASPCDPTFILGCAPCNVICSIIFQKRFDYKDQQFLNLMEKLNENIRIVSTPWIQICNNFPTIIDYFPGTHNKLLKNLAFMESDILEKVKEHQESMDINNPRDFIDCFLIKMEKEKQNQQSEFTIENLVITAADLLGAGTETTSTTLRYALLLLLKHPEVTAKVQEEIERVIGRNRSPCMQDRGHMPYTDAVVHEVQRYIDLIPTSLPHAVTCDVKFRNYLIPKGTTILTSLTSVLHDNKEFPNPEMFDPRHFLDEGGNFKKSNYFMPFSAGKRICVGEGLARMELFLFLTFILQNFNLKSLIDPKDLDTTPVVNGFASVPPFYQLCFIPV
UniProt P10635, whole entry: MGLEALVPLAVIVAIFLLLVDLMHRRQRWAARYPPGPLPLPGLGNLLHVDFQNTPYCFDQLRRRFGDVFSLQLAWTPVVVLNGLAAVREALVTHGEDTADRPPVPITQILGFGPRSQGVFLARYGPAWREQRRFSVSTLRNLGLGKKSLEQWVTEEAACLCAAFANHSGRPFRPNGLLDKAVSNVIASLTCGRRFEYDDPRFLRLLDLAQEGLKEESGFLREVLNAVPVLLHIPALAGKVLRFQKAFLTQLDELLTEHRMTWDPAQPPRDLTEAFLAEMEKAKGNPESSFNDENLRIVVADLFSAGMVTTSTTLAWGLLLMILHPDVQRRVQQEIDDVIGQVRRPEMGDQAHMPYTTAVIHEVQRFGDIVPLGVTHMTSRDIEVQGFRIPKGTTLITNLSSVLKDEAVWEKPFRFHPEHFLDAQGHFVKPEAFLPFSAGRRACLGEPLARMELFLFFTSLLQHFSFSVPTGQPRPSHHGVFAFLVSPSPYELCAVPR
UniProt P08684, whole entry: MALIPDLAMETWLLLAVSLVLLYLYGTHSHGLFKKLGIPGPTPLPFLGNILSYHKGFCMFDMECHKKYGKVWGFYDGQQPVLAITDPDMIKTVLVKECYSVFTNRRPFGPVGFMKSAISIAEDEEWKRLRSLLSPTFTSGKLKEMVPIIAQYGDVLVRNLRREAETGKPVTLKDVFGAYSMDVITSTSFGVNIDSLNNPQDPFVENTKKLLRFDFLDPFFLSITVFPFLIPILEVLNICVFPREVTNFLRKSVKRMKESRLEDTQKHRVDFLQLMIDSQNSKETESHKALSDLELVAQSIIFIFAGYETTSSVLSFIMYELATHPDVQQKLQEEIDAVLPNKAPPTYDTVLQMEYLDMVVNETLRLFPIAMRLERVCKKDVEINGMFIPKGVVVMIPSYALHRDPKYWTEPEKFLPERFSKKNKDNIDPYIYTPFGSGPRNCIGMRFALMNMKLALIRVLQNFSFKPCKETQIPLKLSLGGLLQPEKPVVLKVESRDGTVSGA
UniProt P08684, 2-503 limits assumed: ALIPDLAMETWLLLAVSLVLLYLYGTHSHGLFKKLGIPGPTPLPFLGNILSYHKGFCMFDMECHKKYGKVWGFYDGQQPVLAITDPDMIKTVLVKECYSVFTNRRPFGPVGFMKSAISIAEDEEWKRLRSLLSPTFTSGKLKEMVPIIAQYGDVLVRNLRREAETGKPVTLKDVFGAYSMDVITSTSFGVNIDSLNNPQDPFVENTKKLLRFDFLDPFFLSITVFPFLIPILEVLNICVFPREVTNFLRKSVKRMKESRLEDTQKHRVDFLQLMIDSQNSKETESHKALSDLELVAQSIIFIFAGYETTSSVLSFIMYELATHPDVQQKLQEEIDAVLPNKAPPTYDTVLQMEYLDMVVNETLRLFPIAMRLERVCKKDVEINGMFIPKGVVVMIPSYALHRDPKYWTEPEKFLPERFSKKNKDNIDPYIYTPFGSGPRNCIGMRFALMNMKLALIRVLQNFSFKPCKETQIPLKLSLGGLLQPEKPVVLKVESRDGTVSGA
UniProt P30405, 44-207 K175I limits assumed: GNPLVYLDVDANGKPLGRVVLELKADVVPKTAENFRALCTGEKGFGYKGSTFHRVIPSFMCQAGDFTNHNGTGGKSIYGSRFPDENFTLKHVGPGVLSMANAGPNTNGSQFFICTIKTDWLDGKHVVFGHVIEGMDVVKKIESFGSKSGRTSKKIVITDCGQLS

CYP2B6 [6] = biological target: T2, CYP2B6 (Homo sapiens, UniProt P20813); assay: Metabolism by recombinant human cytochrome P450, CYP2B6; type: in vitro ADME; conditions: recombinant enzyme
Procedure: as §1

CYP2C8 [7] = biological target: T3, CYP2C8 (Homo sapiens, UniProt P10632); assay: Metabolism by recombinant human cytochrome P450, CYP2C8; conditions: recombinant enzyme
CYP2C9 [8] = biological target: T4, CYP2C9 (Homo sapiens, UniProt P11712); assay: Metabolism by recombinant human cytochrome P450, CYP2C9; conditions: recombinant enzyme
CYP2C19 [9] = biological target: T5, CYP2C19 (Homo sapiens, UniProt P33261); assay: Metabolism by recombinant human cytochrome P450, CYP2C19; type: in vitro ADME; conditions: recombinant enzyme
Procedure: as §1

CYP2D6 [10] = biological target: T6, CYP2D6 (Homo sapiens, UniProt P10635); assay: Metabolism by recombinant human cytochrome P450, CYP2D6; conditions: recombinant enzyme
CYP3A4 [11] = biological target: T7, CYP3A4 (Homo sapiens, UniProt P08684); assay: Metabolism by recombinant human cytochrome P450, CYP3A4; type: in vitro ADME; conditions: recombinant enzyme
Procedure: as §1

CYP1A2 [12] = biological target: T1, CYP1A2; assay: Cytochrome P450 enzyme inhibition assay, CYP1A2; conditions: human hepatic microsomal fractions, up to 25 μM
CYP2B6 [13] = biological target: T2, CYP2B6; assay: Cytochrome P450 enzyme inhibition assay, CYP2B6; conditions: human hepatic microsomal fractions, up to 25 μM
CYP2C8 [14] = biological target: T3, CYP2C8; assay: Cytochrome P450 enzyme inhibition assay, CYP2C8; conditions: human hepatic microsomal fractions, up to 25 μM
CYP2C9 [15] = biological target: T4, CYP2C9; assay: Cytochrome P450 enzyme inhibition assay, CYP2C9; conditions: human hepatic microsomal fractions, up to 25 μM
CYP2C19 [16] = biological target: T5, CYP2C19; assay: Cytochrome P450 enzyme inhibition assay, CYP2C19; conditions: human hepatic microsomal fractions, up to 25 μM
CYP2D6 [17] = biological target: T6, CYP2D6; assay: Cytochrome P450 enzyme inhibition assay, CYP2D6; conditions: human hepatic microsomal fractions, up to 25 μM
CYP3A4 [18] = biological target: T7, CYP3A4; assay: Cytochrome P450 enzyme inhibition assay, CYP3A4; conditions: human hepatic microsomal fractions, up to 25 μM
MT4 cells = assay: Cytotoxicity in uninfected MT4 cells; conditions: read-out: MT4 cells CC50
CypD = CypD (Homo sapiens, UniProt P30405, K175I); assay: PPIase enzyme assay (chymotrypsin-coupled), CypD

Question: Which IC50 (CypB) does the source give for O=C(NC(=O)c1c(Cl)cccc1Cl)NC1c2ccccc2-c2ccccc21 here?
Answer: Its IC50 is > 100 µM.

Question: For O=C(NC(=O)c1c(F)cccc1Cl)NC1c2ccccc2-c2ccccc21 [TMN-355, reference compound], which IC50 (CypB) is on record?
Answer: The IC50 was > 100 µM.

Question: Which results are given for CSc1ccccc1C1CCCN1C(=O)C(CC(C)C)NC(=O)NCc1ccc(N)cc1 (centres unmarked)?
Answer: CC50 (Huh7 cells): > 100 µM; CC50 (MRC5 cells): > 100 µM; LogD [1]: 2.5; Solubility HCl (pH 1.0) (Kinetic solubility): > 100 µM; Solubility HCl (pH 1.0) (Kinetic solubility; listed as compound 29): very soluble; Solubility PBS (pH 7.4) (Kinetic solubility): > 100 µM; Solubility PBS (pH 7.4) (Kinetic solubility; listed as compound 29): very soluble; 24-hour stability HCl (pH 1.0) (Chemical stability, 24 h): 98%; 24-hour stability PBS (pH 7.4) (Chemical stability, 24 h): 100%; 24-hour stability PBS (pH 7.4) (Chemical stability, 24 h; listed as compound 29): not degraded; Apparent permeability Forward (Caco-2 cells): 14 ×10⁻⁶ cm/s; Apparent permeability Forward (Caco-2 cells; listed as compound 29): high; Apparent permeability Reverse (Caco-2 cells; reverse): 45.6 ×10⁻⁶ cm/s; Human plasma binding Bound [2]: 85.0%; Human plasma binding Unbound [2]: 15.0%; Cell culture medium (CCM) binding Unbound [3]: 76.8%; Hepatic microsomal stability, T1/2 [4]: 21.6 min; Rate of metabolism by human cytochrome P450 CYP1A2 (CYP1A2 [5]): < 0.12 pmol/pmol P450/min; Rate of metabolism by human cytochrome P450 CYP1A2 (CYP1A2 [5]; listed as compound 29): Neither compound 29 nor compound 30 was metabolized; Rate of metabolism by human cytochrome P450 CYP2B6 (CYP2B6 [6]): < 0.12 pmol/pmol P450/min; Rate of metabolism by human cytochrome P450 CYP2B6 (CYP2B6 [6]; listed as compound 29): Neither compound 29 nor compound 30 was metabolized; Rate of metabolism by human cytochrome P450 CYP2C8 (CYP2C8 [7]): 0.43 pmol/pmol P450/min; Rate of metabolism by human cytochrome P450 CYP2C9 (CYP2C9 [8]): 1.36 pmol/pmol P450/min; Rate of metabolism by human cytochrome P450 CYP2C19 (CYP2C19 [9]): 9.96 pmol/pmol P450/min; Rate of metabolism by human cytochrome P450 CYP2C19 (CYP2C19 [9]; listed as compound 29): metabolized at the highest rate; Rate of metabolism by human cytochrome P450 CYD2D6 (CYP2D6 [10]): 1.43 pmol/pmol P450/min; Rate of metabolism by human cytochrome P450 CYP3A4 (CYP3A4 [11]): < 0.47 pmol/pmol P450/min; Rate of metabolism by human cytochrome P450 CYP3A4 (CYP3A4 [11]; listed as compound 29): but not compound 29; Inhibition of cytochrome P450 activity, IC50 CYP1A2 (CYP1A2 [12]): Neither compound 29 nor compound 30 significantly inhibited; IC50 (CYP1A2 [12]; read-out: Inhibition of cytochrome P450 activity, IC50 CYP1A2): > 25 µM; Inhibition of cytochrome P450 activity, IC50 CYP2B6 (CYP2B6 [13]): Neither compound 29 nor compound 30 significantly inhibited; IC50 (CYP2B6 [13]; read-out: Inhibition of cytochrome P450 activity, IC50 CYP2B6): > 25 µM; Inhibition of cytochrome P450 activity, IC50 CYP2C8 (CYP2C8 [14]): moderate inhibitors; IC50 (CYP2C8 [14]; read-out: Inhibition of cytochrome P450 activity, IC50 CYP2C8): 9.7 µM; Inhibition of cytochrome P450 activity, IC50 CYP2C9 (CYP2C9 [15]): Neither compound 29 nor compound 30 significantly inhibited; IC50 (CYP2C9 [15]; read-out: Inhibition of cytochrome P450 activity, IC50 CYP2C9): > 25 µM; Inhibition of cytochrome P450 activity, IC50 CYP2C19 (CYP2C19 [16]): Neither compound 29 nor compound 30 significantly inhibited; IC50 (CYP2C19 [16]; read-out: Inhibition of cytochrome P450 activity, IC50 CYP2C19): > 25 µM; Inhibition of cytochrome P450 activity, IC50 CYD2D6 (CYP2D6 [17]): Neither compound 29 nor compound 30 significantly inhibited; IC50 (CYP2D6 [17]; read-out: Inhibition of cytochrome P450 activity, IC50 CYD2D6): > 25 µM; Inhibition of cytochrome P450 activity, IC50 CYP3A4 (CYP3A4 [18]): potent inhibitors; IC50 (CYP3A4 [18]; read-out: Inhibition of cytochrome P450 activity, IC50 CYP3A4): 0.97 µM; IC50 (CypB): 0.5 µM; CC50 (MT4 cells): 40 µM

Question: Which “% CypD inhibition (%I) at 1 mM” value (CypD) does the source give for CC(=O)c1cccc(N)c1 here?
Answer: The value was 17%.

Source: article PMC5036131, “Fragment-based discovery of a new family of non-peptidic small-molecule cyclophilin inhibitors with potent antiviral activities” (Nature Communications, 2016)
